Measurements published in patent publication US20260315441A1, “FORMULATIONS OF PENICILLIN AND METHODS FOR STABILIZING PENICILLIN” (VETERINARY PHARMACY CORPORATION, priority 2023, published 2026).

Assay: Solubilization, appearance and pH of penicillin solutions
Type: physicochemical
Description: According to the embodiments, the pH achieved at solubilization was at what was generally understood to be an insoluble range for normal penicillin solutions. […] Because of the lower pH of these clear solutions, it was theorized that the penicillin, according to the embodiments, could lead to better stability of the product compared to other known methods of solubilization. […] Some embodiments of the penicillin solutions maintained greater than 80% potency at 24 hours. According to some embodiments, the term “high potency” can be a potency at or above 80% at 24 hours at room temperature. […] The term “high potency” can be a potency at or above 87% at 24 hours at room temperature, according to some embodiments. The term “high potency” can be a potency at or above 89% at 24 hours at room temperature, according to some embodiments. The term “high potency” can be a potency at or above 90% at 24 hours at room temperature, according to some embodiments. The term “high potency” can be a potency above 90% at 24 hours at room temperature, according to some embodiments. The term “high potency” can be a potency at or above 91% at 24 hours at room temperature, according to some embodiments. The term “high potency” can be a potency above 91% at 24 hours at room temperature, according to some embodiments. […]

reduction of the requirement of alkaline base or other alkaline solubilizers (compared to what was generally understood to be required): ≥ 10 ×
SMILES: C/C=C/C=C/C(=O)[O-].[K+] [potassium sorbate]
dissolution of capsule fragments (penicillin powder compounded from capsules, with potassium sorbate): dissolution of the capsule fragments without altering the stability of the product
